This is one part of the list.
Tested on: A. baumannii ATCC 17978
Assay: relative growth (fraction of control); higher = less inhibition
Details: 50 µM

| SMILES | relative growth |
| --- | --- |
| CCCN1C[C@H](C)[C@H](OC)CN(C)C(=O)c2cc(NS(=O)(=O)c3cn(C)cn3)ccc2OC[C@@H]1C | 0.953 |
| COC(=O)CNC(=O)C(=O)OC | 1.12 |
| C[C@@H]1O[C@@H](OC[C@H]2OC(Oc3c(-c4ccc(O)c(O)c4)oc4cc(O)cc(O)c4c3=O)[C@H](O)[C@@H](O)[C@@H]2O)[C@H](O)[C@H](O)[C@H]1O (stereo partly drawn) | 1.01 |
| CC(C)(C)Cc1ccc(OCCCC(=O)O)c(CC(C)(C)C)c1 | 1.41 |
| O=C(O)Cn1c(=O)n(CC(=O)O)c2ccccc21 | 1 |
| Cl.Clc1ccc2c(c1)CCc1cccnc1C2=C1CCNCC1 | 0.934 |
| CC(C)(C)[S@@](=O)N1Cc2cc(C(=O)N3CCCCC3)nc(-c3cccc(-c4cccc(C#N)c4)c3)c2[C@H]1CCO | 1.04 |
| C[C@H]1CN([C@@H](C)CO)S(=O)(=O)c2ccc(-c3ccncc3)cc2O[C@H]1CN(C)C(=O)c1ccc2c(c1)OCO2 | 1.03 |
| CCn1nc(C)cc1C(=O)NN | 1.22 |
| O=C(NCCO[N+](=O)[O-])c1cccnc1 | 1 |
| Cc1ccc(S(=O)(=O)NCC[C@@H]2CC[C@H](NS(=O)(=O)c3ccccc3Cl)[C@@H](CO)O2)cc1 | 0.893 |
| COc1cccc(S(=O)(=O)Nc2ccc3c(c2)[C@@H]2C[C@H](CC(=O)NCc4ccccc4F)O[C@H](CO)[C@@H]2O3)c1 | 0.992 |
| NC(C(=O)O)C(O)c1ccc(O)c(O)c1 (stereo not drawn) | 1.1 |
| O=c1ccc(-c2ccncc2)n[nH]1 | 1.16 |
| CC1=Nc2ccc(Cl)cc2S(=O)(=O)N1 | 1.14 |
| C=CCOC(=O)[C@@H]1[C@H]2C(=O)O[C@H](c3ccccc3)[C@H](c3ccccc3)N2[C@H](c2ccc(OCCOC(=O)[C@@H]3C[C@@H]4C(=O)N[C@@H](CC(C)C)C(=O)N4[C@@H]3c3ccc(O)cc3)cc2)[C@@]12C(=O)Nc1ccc(I)cc12 | 0.957 |
| Cc1ccc(S[C@]2(C(=O)O)CC(=O)N(Cc3cc(C(F)(F)F)cc(C(F)(F)F)c3)[C@@H]2c2ccc(CO)cc2)cc1 | 0.925 |
| CC(C(=O)O)c1ccc(N2Cc3ccccc3C2=O)cc1 (stereo not drawn) | 1.07 |
| CNCC[C@H](Oc1cccc2ccccc12)c1cccs1.Cl | 0.809 |
| CCn1nc(C(=O)O)c(=O)c2cc3c(cc21)OCO3 | 0.167 |
| CO[C@@H]1CN(C)C(=O)c2ccc(NC(=O)Nc3ccccc3)cc2OC[C@H](C)N(C(=O)CN(C)C)C[C@H]1C | 1.13 |
| O=c1c(-c2ccc(O)cc2)coc2c([C@@H]3O[C@H](CO)[C@@H](O)[C@H](O)[C@H]3O)c(O)ccc12 | 1.04 |
| COc1cc(N2CCN(S(C)(=O)=O)CC2)nc(C)n1 | 1.08 |
| CSc1nc(C)nc2ccccc12 | 0.848 |
| CC(C)(Oc1ccc(C(=O)c2ccc(Cl)cc2)cc1)C(=O)O | 0.983 |
| O=C(C[C@@H]1CC[C@H](NC(=O)c2cccnc2)[C@@H](CO)O1)NCCN1CCCCC1 | 0.93 |

| SMILES | relative growth |
| --- | --- |
| CCCCNc1ccc(C(=O)OCCOCCOCCOCCOCCOCCOCCOCCOCCOC)cc1 | 0.944 |
| CO[C@@H]1CN(C)C(=O)c2ccc(NC(=O)Nc3ccccc3)cc2OC[C@H](C)N(C(=O)CN(C)C)C[C@@H]1C | 1.08 |
| COc1ccc(S(=O)(=O)N(C)C[C@@H]2Oc3ccc(NC(=O)Nc4cc(Cl)cc(Cl)c4)cc3CC(=O)N([C@@H](C)CO)C[C@@H]2C)cc1Cl | 0.953 |
| CC(C)=CCC/C(C)=C/CC/C(C)=C/CC/C(C)=C/CC/C(C)=C/CC/C(C)=C/CC/C(C)=C/CC/C(C)=C/CC/C(C)=C/CO | 1.18 |
| O=C(C[C@@H]1CC[C@@H]2[C@H](COC[C@H](O)CN2C(=O)c2ccc3c(c2)OCO3)O1)NCCN1CCCC1 | 1.11 |
| C[C@H](CO)N1C[C@H](C)[C@@H](CN(C)C(=O)C2CCCCC2)Oc2cc(Br)ccc2S1(=O)=O | 0.792 |
| O=S1(=O)OC(c2ccc(O)cc2)(c2ccc(O)cc2)c2ccccc21 | 1.01 |
| OCCCC1=C[C@H](c2ccc(CN3CCCC3)cc2)N(Cc2cc3c(cc2Br)OCO3)CC1 | 1.02 |
| C[C@H](NC(=O)C[C@H]1CC[C@@H](NC(=O)CN2CCOCC2)[C@H](CO)O1)c1ccccc1 | 0.815 |
| COCCOC(=O)C1=C(C)NC(C)=C(C(=O)OC/C=C/c2ccccc2)C1c1cccc([N+](=O)[O-])c1 (stereo not drawn) | 1.59 |
| C[C@@H]1CN([C@@H](C)CO)S(=O)(=O)c2ccc(C3=CCCC3)cc2O[C@H]1CN(C)C(=O)c1cnccn1 | 1.13 |
| CN(C)Cc1cn(CC[C@H]2CC[C@H](NC(=O)Cc3cccnc3)[C@@H](CO)O2)nn1 | 0.94 |
| O=C(O[C@@H]1Cc2c(O)cc(O)cc2O[C@@H]1c1cc(O)c(=O)c2c(O)c(O)cc([C@H]3Oc4cc(O)cc(O)c4C[C@H]3O)c2c1)c1cc(O)c(O)c(O)c1 | 0.902 |
| CN1CCN(C(=O)C[C@@H]2CC[C@@H]3[C@H](COC[C@H](O)CN3C(=O)C3CC3)O2)CC1 | 0.988 |
| C[C@H]1O[C@@H](O[C@H]2CC[C@@]3(C)[C@@H](CC[C@@]4(C)[C@@H]3CC=C3[C@H]5C[C@](C)(C(=O)O)CC[C@]5(C(=O)O[C@H]5O[C@@H](CO)[C@@H](O)[C@@H](O)[C@@H]5O)CC[C@@]34C)[C@@]2(C)CO)[C@@H](O)[C@@H](O[C@H]2O[C@@H](CO)[C@@H](O)[C@@H](O)[C@@H]2O)[C@@H]1O | 0.953 |
| O=C(O)/C=C/c1ccc(Cn2ccnc2)cc1 | 1.16 |
| CO[C@@H]1CN(C)C(=O)c2cc(NS(C)(=O)=O)ccc2OC[C@H](C)N(C(=O)C2CCOCC2)C[C@H]1C | 1.15 |
| COCc1cn(C[C@H](Cc2ccccc2)NC(=O)N[C@H](CO)CCc2oc(C(=O)N3CCOCC3)c(C(=O)OC)c2C(=O)OC)nn1 | 0.908 |
| CCOc1ccc(CO[C@@H]2O[C@H](CO)[C@@H](O)[C@H](O)[C@H]2NC(C)=O)cc1OC | 1.06 |
| C[C@H]1OC(n2cc(F)c(=O)[nH]c2=O)C(O)[C@@H]1O (stereo partly drawn) | 1.15 |
| CC(=O)n1cc([C@@H]2C=C(C(=O)NCc3ccccc3)O[C@H](OCc3ccc(CO)cc3)C2)c2ccccc21 | 0.993 |
| CCN(CC)CCOCCOC(=O)C(CC)(CC)c1ccccc1.O=C(O)CC(O)(CC(=O)O)C(=O)O | 0.993 |
| CNC(=O)CN1C(=O)c2ccccc2S1(=O)=O | 1.05 |
| COC(=O)Nc1nc2ccc(S(=O)c3ccccc3)cc2[nH]1 (stereo not drawn) | 0.99 |
| COC(=O)Cc1c(C)[nH]c2ncnn2c1=O | 1.05 |
| C[C@H](CCC(=O)[O-])[C@H]1CCC2C3C(=O)CC4CC(=O)CC[C@]4(C)C3CC(=O)[C@@]21C.[Na+] (stereo partly drawn) | 1.12 |

| SMILES | relative growth |
| --- | --- |
| CO[C@H]1CN(C)C(=O)c2cc(NS(=O)(=O)CC(F)(F)F)ccc2OC[C@@H](C)N(Cc2ccccn2)C[C@@H]1C | 0.985 |
| CO[C@H]1C(=O)[C@@]2(C)C([C@H](OC(=O)c3ccccc3)[C@]3(O)C[C@H](OC(=O)[C@H](O)[C@@H](NC(=O)OC(C)(C)C)c4ccccc4)C(C)=C1C3(C)C)[C@]1(OC(C)=O)CO[C@@H]1C[C@@H]2OC (stereo partly drawn) | 1.45 |
| CN(C)CC/C=C1/c2ccccc2COc2ccccc21.Cl | 0.828 |
| COCC(=O)N1C[C@H](C)[C@H](OC)CN(C)C(=O)c2ccc(NC(=O)c3ccc(F)cc3)cc2OC[C@@H]1C | 0.949 |
| C[C@@H]1CN([C@H](C)CO)S(=O)(=O)c2ccc(C#Cc3cccnc3)cc2O[C@H]1CN(C)C(=O)Nc1ccc2c(c1)OCO2 | 1.1 |
| CC(C)=CCC/C(C)=C/CO | 0.869 |
| O=C(O)Cn1nnnc1-c1ccc(F)cc1 | 0.999 |
| C[C@@H]1CN([C@@H](C)CO)S(=O)(=O)c2ccc(C#CC(C)(C)O)cc2O[C@H]1CN(C)C(=O)CN(C)C | 1.02 |
| C[C@]12CCC(=O)C=C1CCC1C2CC[C@@]2(C)C1CC[C@]2(O)C(=O)CO (stereo partly drawn) | 0.969 |
| CC(C)(CO)NC(=O)C(=O)NC1CC1 | 1.04 |
| C=CCNC(=O)[C@H]1[C@@H]2C(=O)O[C@@H](c3ccccc3)[C@@H](c3ccccc3)N2[C@@H](c2ccc(O)cc2)[C@]12C(=O)Nc1ccc(C#Cc3ccc(OC)cc3)cc12 | 0.871 |
| Nc1cccc(C2=NCCN2)c1 | 1.04 |
| COCC(=O)N(C)C[C@@H]1Oc2cc(C#CCC3CCCC3)ccc2S(=O)(=O)N([C@@H](C)CO)C[C@H]1C | 0.909 |
| COc1ccc(C)cc1S(=O)(=O)NCCO | 1.01 |
| O=c1[nH]nc(Br)c(=O)[nH]1 | 1 |
| CCCC#Cc1ccc2c(c1)O[C@@H](CN(C)C(=O)c1cnccn1)[C@H](C)CN([C@@H](C)CO)S2(=O)=O | 0.984 |
| C[C@@H]1CN([C@H](C)CO)S(=O)(=O)c2ccc(-c3ccc(C(=O)N(C)C)cc3)cc2O[C@@H]1CN(C)C(=O)Cc1ccccn1 | 1.07 |
| CN1CCC(=C2c3ccccc3CC(=O)c3sccc32)CC1.O=C(O)/C=C/C(=O)O | 0.943 |
| Cn1c(N)c(C(=O)c2ccco2)c(=O)n(C)c1=O | 1.01 |
| COC(=O)c1c2oc(c1C(=O)OC)C(=O)N(C)Cc1cn(nn1)C[C@@H](Cc1ccccc1)NC(=O)N[C@H](COC(=O)NCCCCCC(=O)NO)CC2 | 0.834 |
| CS(=O)(=O)Nc1ccc2c(c1)[C@H]1C[C@H](CC(=O)NCc3ccc(-c4ccccc4)cc3)O[C@H](CO)[C@H]1O2 | 1.05 |
| COc1ccc(COC[C@]23NC(=S)N[C@H](c4ccccc4O2)[C@H]3CO[Si](C)(C)C(C)(C)C)cc1 | 1.14 |
| CN/C(=C\[N+](=O)[O-])NCCSCc1csc(CN(C)C)n1 | 0.956 |
| CC(=O)[C@H]1CCC2C3CC=C4C[C@@H](O)CC[C@]4(C)C3CC[C@@]21C (stereo partly drawn) | 0.993 |
| NCC[C@H]1CC[C@@H](NC(=O)C2CCCCC2)[C@H](CO)O1 | 1.06 |
| CC(C)/C(O)=C1/C(=O)O[C@@H](c2ccoc2)[C@]2(C)C(O)[C@@H](O)[C@@]34OC5(C)OC67CC(C)(C(O)[C@]6(O)[C@@H](O)[C@]3(O5)C12)[C@H](CC(=O)O)[C@]74C (stereo partly drawn) | 0.967 |

From published antibiotic growth screens (doi:10.1038/s41589-023-01349-8)
